Laboratory results reported in patent publication US5789625A, “Metal-ligand complex catalyzed processes” (priority 1996, dated 1998).

Assay: Stability of Ligand F in butyraldehyde solution containing rhodium, by HPLC (Examples 2-4)
Assay type: physicochemical
Settings: 0.018 grams phosphorous acid and 0.0337 grams benzimidazole added

## CC(C)(C)c1cc(-c2cc(C(C)(C)C)cc(C(C)(C)C)c2Op2oc3ccccc3c3ccccc3o2)c(Op2oc3ccccc3c3ccccc3o2)c(C(C)(C)C)c1 [Ligand F]
24 hours
  decomposition of Ligand F: No decomposition
72 hours
  decomposition of Ligand F: No decomposition
